Measurements reported in PubChem BioAssay AID720708 (National Center for Advancing Translational Sciences (NCATS), 2013).
The list shows a part of the results, in another mix than the full data. Some results for these compounds are left out of this collection, so the calls shown say nothing about other tests. Activity calls are given as the source filed them. Calls come from the whole dose curve; as a rule, active = well fitted inhibition curve with a large enough effect; inconclusive = small, poorly fitted or top-dose-only effect; inactive = no such curve, though single readings can be large or run the other way.

Chains of the proteins cited; added tags and fusions are not shown.
UniProt Q8WZA2, whole entry: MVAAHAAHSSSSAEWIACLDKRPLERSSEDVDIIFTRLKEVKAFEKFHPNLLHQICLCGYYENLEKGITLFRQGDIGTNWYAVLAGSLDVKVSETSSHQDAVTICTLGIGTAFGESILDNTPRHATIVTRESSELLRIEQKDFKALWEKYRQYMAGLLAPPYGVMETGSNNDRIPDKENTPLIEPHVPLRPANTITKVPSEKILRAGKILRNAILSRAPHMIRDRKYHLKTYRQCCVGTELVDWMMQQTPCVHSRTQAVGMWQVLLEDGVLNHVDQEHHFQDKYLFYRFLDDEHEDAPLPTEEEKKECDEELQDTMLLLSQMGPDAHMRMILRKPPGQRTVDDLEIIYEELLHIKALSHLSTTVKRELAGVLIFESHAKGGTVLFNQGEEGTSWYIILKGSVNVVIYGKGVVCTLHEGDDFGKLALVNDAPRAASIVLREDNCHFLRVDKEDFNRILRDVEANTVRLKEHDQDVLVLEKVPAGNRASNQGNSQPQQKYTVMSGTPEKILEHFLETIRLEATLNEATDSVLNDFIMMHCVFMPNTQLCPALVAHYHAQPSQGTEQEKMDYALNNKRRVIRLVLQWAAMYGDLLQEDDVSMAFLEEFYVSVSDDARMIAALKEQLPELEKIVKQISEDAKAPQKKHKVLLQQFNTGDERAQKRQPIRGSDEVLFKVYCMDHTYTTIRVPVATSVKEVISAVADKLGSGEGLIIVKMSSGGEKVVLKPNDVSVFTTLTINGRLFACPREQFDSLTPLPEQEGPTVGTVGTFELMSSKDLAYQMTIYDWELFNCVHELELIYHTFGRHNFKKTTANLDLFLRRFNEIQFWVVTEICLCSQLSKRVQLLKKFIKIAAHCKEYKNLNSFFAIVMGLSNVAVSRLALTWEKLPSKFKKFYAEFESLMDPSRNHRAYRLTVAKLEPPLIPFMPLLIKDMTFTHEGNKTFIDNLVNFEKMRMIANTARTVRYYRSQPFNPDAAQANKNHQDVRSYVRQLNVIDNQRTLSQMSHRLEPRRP

Target: Rap guanine nucleotide exchange factor 4 (Homo sapiens) (UniProt Q8WZA2)
Experiment: qHTS for Antagonist of cAMP-regulated guanine nucleotide exchange factor 2 (EPAC2): primary screen; note: nearly all actives have a fitted effect of over 45% in size
Settings: EPAC2 GEF exchange of Rap1B-BODIPY-GDP, fluorescence; at 114 µM (top of the series) unless noted
Source text: In multi-cellular eukaryotic organisms, the effects of cAMP are transduced by two ubiquitously-expressed intracellular cAMP receptors, the classic protein kinase A/cAMP-dependent protein kinase (PKA/cAPK) and the more recently discovered exchange protein directly activated by cAMP/cAMP-regulated guanine nucleotide exchange factor (EPAC/cAMP-GEF). Both PKA and EPAC are ubiquitously expressed in all tissues, and an increase in intracellular cAMP levels will lead to the activation of both PKA and EPAC. Therefore, careful dissections of the individual role and relative contribution of EPAC and PKA within the overall cAMP signaling in various model systems are critical for further elucidating the mechanism of cAMP signaling. To date no EPAC-specific antagonists and agonist, as well as isoform-specific agonists have been reported, and developing EPAC-specific pharmacological probes to determine the physiological functions that EPAC play in the overall cAMP-mediated signaling remains a major challenge within the research field. Furthermore, identified regulators of EPAC may lead to new mechanism-based therapeutic strategies specifically targeting the EPAC / cAMP-signaling components as EPAC has been implicated to play important roles in major human pathological conditions such as diabetes, heart disease, and cancer.
This qHTS will be used to screen the Molecular Libraries Small Molecule Repository (MLSMR) as a concentration-titration series using the NCGC unique quantitative screening (qHTS) platform to find inhibitors for EPAC2. In addition, this assay will also be used as a counterscreen for the EPAC1 qHTS. This fluorescent based assay is developed and validated for EPAC2 that measures exchange using EPAC effector Rap1 complex with BODIPY-GDP, a GDP analog with a tethered fluorophores. Inhibitors are identified by monitoring the change in fluorescence signal as the exchanged free BODIPY-GDP has a reduced fluorescence compared to Rap1-bound BODIPY-GDP. Decrease in signal (inhibition) is the desired outcome for the EPAC2 antagonist while no activity in this assay is desired for the EPAC1 antagonist counterscreen.
NIH Chemical Genomics Center [NCGC]
NIH Molecular Libraries Probe Centers Network [MLPCN]
Assay Submitter (PI): Xiaodong Cheng, The University of Texas, Medical Branch
Briefly, three uL of reagents (100 nM EPAC2, 250 nM RAP1B-BODIPY-GDP, 50 uM GDP) were dispensed into a 1536-well Greiner black solid-bottom medium binding assay plate. Controls and test compounds (23 nL) were transferred to the plate via a Kalypsys pin tool equipped with a 1536-pin array. The plates were centrifuged at 1,000 rpm for 15 seconds followed by 5 minute incubation at room temperature. The assay plates were read at 5 minute intervals for 30 minutes in the ViewLux plate reader using 480nm excitation and 540nm emission filters. The results were normalized to the agonist positive control ATA and DMSO.
% is set by controls: 0 for no effect and ±100 for the full control effect.

Row | Structure (SMILES) | activity, negative = inhibition
1 | CN(C)C1CCCC1OC(=O)C(O)(c1ccccc1)c1ccccc1 (stereo unspecified) | inactive: 14%
2 | CN(C)c1ccc(C(=O)NCC2(N(C)C)CCCCC2)cc1 | inactive: -7.47%
3 | Cc1ccccc1C(=O)NCC1(N2CCCCC2)CCCCC1 | inactive: 4.99%
4 | O=C(NCC1(N2CCCCC2)CCCCC1)c1cc(F)c(F)cc1Cl | inactive: 2.55%
5 | C=CCN1CCN(CCOC(=O)C(O)(c2ccccc2)c2ccccc2)CC1 | inactive: 14.1%
6 | O=C(NCC1(N2CCCCC2)CCCCC1)c1cccc(Br)c1 | inactive: 1.17%
7 | Cc1cc(C(=O)NCC2(N3CCCCC3)CCCCC2)ccc1[N+](=O)[O-] | inactive: -5.81%
8 | CCN1CCCC(OC(=O)C2(O)c3ccccc3C=Cc3ccccc32)C1 (stereo unspecified) | inactive: 0.843%
9 | COc1ccc(C(=O)NCC2(N(C)C)CCCCC2)cc1 | inactive: 4.24%
10 | O=C(NCC1(N2CCCCC2)CCCCC1)c1cc([N+](=O)[O-])ccc1Cl | inactive: 5.55%
11 | CN1[C@@H]2CC[C@H]1CC(OC(=O)C(O)(c1ccccc1)c1ccccc1)C2 (stereo partly specified) | inactive: 9.95%
12 | CC(C)N1C(=O)CC2(CCN(CCOC(=O)C(O)(c3ccccc3)c3ccccc3)CC2)C1=O | inactive: 7.3%
13 | COc1cc(SC)ccc1C(=O)NCC1(N(C)C)CCCCC1 | inactive: -2.31%
14 | CCN(CC)CC(C)C(C)OC(=O)C(O)(c1ccccc1)c1ccccc1 (stereo unspecified) | inactive: 6.38%
15 | Cc1ccc(C(=O)NCC2(N3CCCCC3)CCCCC2)cc1 | inactive: -8.5%
16 | O=C(OC1CN2CCC1CC2)C(CO)(c1ccccc1)c1ccccc1 (stereo unspecified) | inactive: -20.4% [at 57.1 µM]
17 | COc1ccc(Br)c(C(=O)NCC2(N3CCCCC3)CCCCC2)c1 | inactive: -6.25%
18 | C=C(C)C#CC(O)(C(=O)OC1CCN(C)CC1)c1ccccc1 (stereo unspecified) | inactive: 15.9%
19 | CN(C)c1cccc(C(=O)NCC2(N(C)C)CCCCC2)c1 | inactive: 16.1%
20 | O=C(OCCN1CCCC1)C(O)(c1ccccc1)c1ccccc1 | inactive: 8.12%
21 | CC(C)Oc1ccc(C(=O)NCC2(N(C)C)CCCCC2)cc1 | inactive: 4.27%
22 | CN(C)C1(CNC(=O)c2ccc(Br)cc2)CCCCC1 | inactive: 2.51%
23 | COc1cc(C(=O)NCC2(N(C)C)CCCCC2)c([N+](=O)[O-])cc1OC | inactive: 6.8%
24 | COc1ccc(Cl)cc1C(=O)NCC1(N(C)C)CCCCC1 | inactive: -3.17%
25 | COc1cccc(C(=O)NCC2(N3CCCCC3)CCCCC2)c1 | inactive: 4.1%
26 | O=C(NCC1(N2CCCCC2)CCCCC1)c1cccc(Cl)c1 | inactive: -5.76%
